Values quoted from earlier work in patent publication US20200345862A1, “TRANSITION METAL-BASED FUNCTIONAL MOIETIES FOR PREPARING CELL TARGETING CONJUGATES” (priority 2017, published 2020).

Legend:
NCI-N87 = conditions: single dose; NCI-N87 gastric cancer xenograft; cited from earlier work
JIMT-1 = conditions: single dose; JIMT-1 breast cancer xenograft; cited from earlier work

trastuzumab-Lx-AF
efficacy versus trastuzumab-mal-AF and ado-trastuzumab emtansine (NCI-N87): outperformed | efficacy versus trastuzumab-mal-AF and ado-trastuzumab emtansine (JIMT-1): outperformed
